{
  "sequences": {"note": "Amino acid sequences for entries named in this document (tags omitted). A change or cut given only in a name is not applied to a line headed by its entry.", "UniProt Q45087": "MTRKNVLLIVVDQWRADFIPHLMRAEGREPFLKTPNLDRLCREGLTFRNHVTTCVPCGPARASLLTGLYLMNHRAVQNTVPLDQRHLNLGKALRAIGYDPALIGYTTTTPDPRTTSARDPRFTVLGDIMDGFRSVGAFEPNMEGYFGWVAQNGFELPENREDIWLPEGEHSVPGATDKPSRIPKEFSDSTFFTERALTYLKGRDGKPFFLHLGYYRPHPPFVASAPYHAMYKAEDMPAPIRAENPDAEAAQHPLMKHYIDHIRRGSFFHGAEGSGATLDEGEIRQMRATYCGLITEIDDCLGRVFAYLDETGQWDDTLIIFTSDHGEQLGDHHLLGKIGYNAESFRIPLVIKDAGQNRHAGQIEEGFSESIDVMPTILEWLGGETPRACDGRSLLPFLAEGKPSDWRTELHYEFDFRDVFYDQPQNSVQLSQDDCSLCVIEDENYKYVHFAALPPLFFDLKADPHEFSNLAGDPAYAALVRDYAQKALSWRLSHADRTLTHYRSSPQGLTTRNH"},
  "source": "patent US6897032B1",
  "about": "“Method for detecting G- and V-agents of chemical warfare and their degradation products” (dated 2005)",
  "target": "phosphonate ester hydrolase enzyme (PEH) (Trinickia caryophylli, UniProt Q45087)",
  "test": "PEH against chromogenic substrates, p-nitrophenol release monitored spectrophotometrically",
  "data": [
    {"substance": "p-nitrophenyl phenylphosphonate", "values": [
      {"measurement": "PEH degradation of chromogenic substrate (release of yellow p-nitrophenol)", "value": "effective in degrading"}
    ]}
  ]
}
